Measurements: patent publication US10799620B2, “Ring and tubular structures and methods of synthesis and use thereof” (BOARD OF REGENTS OF THE UNIVERSITY OF NEBRASKA, priority 2016, dated 2020)

What was measured:
[1] = FIG. 2
[2] = PU nanofiber ring, BSA located in shell, FIG. 6C

bovine serum albumin [BSA]
initial in vitro release of BSA ([1]; from (PCL) nanofiber ring device): significantly inhibits the initial release | initial in vitro release of BSA ([1]; from traditional electrospun (PCL) nanofiber membranes): large initial burst | release profile from shell of ring [2]: released in an initial burst

Read-outs that look alike come from different tables or passages of the source.
